Target: T1, Collagenase ColG (Hathewaya histolytica, UniProt Q9X721)
T1 sequence (Q9X721 whole entry): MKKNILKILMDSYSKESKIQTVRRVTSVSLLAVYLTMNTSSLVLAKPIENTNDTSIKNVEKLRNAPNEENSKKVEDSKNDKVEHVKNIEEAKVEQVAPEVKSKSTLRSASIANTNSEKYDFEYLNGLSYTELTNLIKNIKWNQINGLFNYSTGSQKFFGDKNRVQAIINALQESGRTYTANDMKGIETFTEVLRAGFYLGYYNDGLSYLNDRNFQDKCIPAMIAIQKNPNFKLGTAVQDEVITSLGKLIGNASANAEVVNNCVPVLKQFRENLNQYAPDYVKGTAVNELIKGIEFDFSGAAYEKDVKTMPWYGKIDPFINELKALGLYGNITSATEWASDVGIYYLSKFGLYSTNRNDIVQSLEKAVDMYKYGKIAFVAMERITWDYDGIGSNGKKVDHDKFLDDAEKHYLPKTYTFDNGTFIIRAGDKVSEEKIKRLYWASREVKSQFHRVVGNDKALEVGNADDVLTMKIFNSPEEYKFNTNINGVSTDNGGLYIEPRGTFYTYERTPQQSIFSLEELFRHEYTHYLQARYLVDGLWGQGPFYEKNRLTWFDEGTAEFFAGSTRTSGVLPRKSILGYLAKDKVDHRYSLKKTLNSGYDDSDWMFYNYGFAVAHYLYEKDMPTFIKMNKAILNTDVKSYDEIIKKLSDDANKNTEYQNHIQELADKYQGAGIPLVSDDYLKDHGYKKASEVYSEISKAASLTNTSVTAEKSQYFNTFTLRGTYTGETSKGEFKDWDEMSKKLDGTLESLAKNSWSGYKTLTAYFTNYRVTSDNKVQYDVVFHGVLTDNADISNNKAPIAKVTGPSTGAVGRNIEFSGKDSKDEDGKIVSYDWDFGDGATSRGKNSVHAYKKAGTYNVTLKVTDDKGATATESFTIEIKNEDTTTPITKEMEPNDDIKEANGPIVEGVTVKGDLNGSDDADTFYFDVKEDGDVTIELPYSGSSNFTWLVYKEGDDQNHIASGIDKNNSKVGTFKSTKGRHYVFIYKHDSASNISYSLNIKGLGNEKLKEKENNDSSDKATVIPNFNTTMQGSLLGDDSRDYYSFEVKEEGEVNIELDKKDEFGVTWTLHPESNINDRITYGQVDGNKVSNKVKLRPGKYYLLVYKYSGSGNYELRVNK
Assay: ChC Enzyme Inhibition Assay
Method: The rate of hydrolysis was determined from the change in absorbance at 324 nm using an extinction coefficient, 24700 M-1 cm-1 for FALGPA. Initial velocities were thus estimated using the direct linear plot-based procedure. The inhibition constant Ki was then determined by using Easson-Stedman plots and a linear regression program.

Row | Structure (SMILES) | Ki | Ki (pH 7.5, 25 °C)
1 | CC(C(=O)NO)N(Cc1ccccc1Cl)C(=O)NS(=O)(=O)c1ccc(Cl)cc1 (configuration not stated) [2-({[(4-chlorobenzene)sulfonyl]carbamoyl}[(2-chlorophenyl)methyl]amino)-N-hydroxypropanamide] | 8 nM | 
2 | CC(C(=O)O)N(Cc1ccccc1Cl)C(=O)NS(=O)(=O)c1ccc(Cl)cc1 (configuration not stated) [2-({[(4-chlorobenzene)sulfonyl]carbamoyl}[(2-chlorophenyl)methyl]amino)propanoic acid] | 3400 nM | 
3 | CC(C(=O)NO)N(Cc1ccccc1Cl)S(=O)(=O)c1ccc([N+](=O)[O-])c(Cl)c1 (configuration not stated) [2-[(3-chloro-4-nitrobenzene)[(2-chlorophenyl)methyl]sulfonamido]-N-hydroxypropanamide] | 10 nM | 
4 | CC(C(=O)O)N(Cc1ccccc1Cl)S(=O)(=O)c1ccc([N+](=O)[O-])c(Cl)c1 (configuration not stated) [2-[(3-chloro-4-nitrobenzene)[(2-chlorophenyl)methyl]sulfonamido]propanoic acid] | 3100 nM | 
5 | COc1ccc(S(=O)(=O)N(Cc2ccccc2Cl)C(C)C(=O)O)cc1NC(=O)OC(C)(C)C (configuration not stated) [2-[(3-{[(tert-butoxy)carbonyl]amino}-4-methoxybenzene)[(2-chlorophenyl)methyl]sulfonamido]propanoic acid] | 3000 nM | 
6 | CC(C(=O)NO)N(Cc1ccccc1Cl)S(=O)(=O)c1ccc(Br)cc1 (configuration not stated) [2-[(4-bromobenzene)[(2-chlorophenyl)methyl]sulfonamido]-N-hydroxypropanamide] | 33 nM | 
7 | CC(C(=O)O)N(Cc1ccccc1Cl)S(=O)(=O)c1ccc(Br)cc1 (configuration not stated) [2-[(4-bromobenzene)[(2-chlorophenyl)methyl]sulfonamido]propanoic acid] |  | 10000 nM
8 | CC(C(=O)O)N(Cc1ccccc1Cl)S(=O)(=O)c1ccc(Cl)cc1 (configuration not stated) [2-[(4-chlorobenzene)[(2-chlorophenyl)methyl]sulfonamido]propanoic acid] |  | 13000 nM
9 | CC(C(=O)O)N(Cc1ccccc1Cl)S(=O)(=O)c1ccc(NC(=O)OC(C)(C)C)cc1 (configuration not stated) [2-[(4-{[(tert-butoxy)carbonyl]amino}benzene)[(2-chlorophenyl)methyl]sulfonamido]propanoic acid] | 2700 nM | 
10 | CC(C(=O)O)N(Cc1ccccc1Cl)S(=O)(=O)C(F)(F)C(F)(F)C(F)(F)C(F)(F)F (configuration not stated) [2-{[(2-chlorophenyl)methyl](1,1,2,2,3,3,4,4,4-nonafluorobutane)sulfonamido}propanoic acid] |  | 3000 nM
11 | CC(C(=O)NO)N(Cc1ccccc1Cl)S(=O)(=O)C(F)(F)C(F)(F)C(F)(F)C(F)(F)C(F)(F)C(F)(F)C(F)(F)C(F)(F)F (configuration not stated) [2-{[(2-chlorophenyl)methyl](1,1,2,2,3,3,4,4,5,5,6,6,7,7,8,8,8-heptadecafluorooctane)sulfonamido}-N-hydroxypropanamide] | 8 nM | 
12 | CC(C(=O)O)N(Cc1ccccc1Cl)S(=O)(=O)C(F)(F)C(F)(F)C(F)(F)C(F)(F)C(F)(F)C(F)(F)C(F)(F)C(F)(F)F (configuration not stated) [2-{[(2-chlorophenyl)methyl](1,1,2,2,3,3,4,4,5,5,6,6,7,7,8,8,8-heptadecafluorooctane)sulfonamido}propanoic acid] |  | 1500 nM
13 | CC(C(=O)NO)N(Cc1ccccc1Cl)S(=O)(=O)c1c(F)c(F)c(F)c(F)c1F (configuration not stated) [2-{[(2-chlorophenyl)methyl](2,3,4,5,6-pentafluorobenzene)sulfonamido}-N-hydroxypropanamide] | 5 nM | 
14 | CC(C(=O)O)N(Cc1ccccc1Cl)S(=O)(=O)c1c(F)c(F)c(F)c(F)c1F (configuration not stated) [2-{[(2-chlorophenyl)methyl](2,3,4,5,6-pentafluorobenzene)sulfonamido}propanoic acid] | 400 nM | 
15 | Cc1cc(C)c(S(=O)(=O)N(Cc2ccccc2Cl)C(C)C(=O)O)c(C)c1 (configuration not stated) [2-{[(2-chlorophenyl)methyl](2,4,6-trimethylbenzene)sulfonamido}propanoic acid] | 6800 nM | 
16 | CC(C(=O)NO)N(Cc1ccccc1Cl)S(=O)(=O)c1cc(Cl)ccc1Cl (configuration not stated) [2-{[(2-chlorophenyl)methyl](2,5-dichlorobenzene)sulfonamido}-N-hydroxypropanamide] | 15 nM | 

Row | Structure (SMILES) | Ki | Ki (pH 7.5, 25 °C)
17 | CC(C(=O)O)N(Cc1ccccc1Cl)S(=O)(=O)c1cc(Cl)ccc1Cl (configuration not stated) [2-{[(2-chlorophenyl)methyl](2,5-dichlorobenzene)sulfonamido}propanoic acid] | 4100 nM | 
18 | CC(C(=O)O)N(Cc1ccccc1Cl)S(=O)(=O)c1ccccc1[N+](=O)[O-] (configuration not stated) [2-{[(2-chlorophenyl)methyl](2-nitrobenzene)sulfonamido}propanoic acid] |  | 4900 nM
19 | CC(C(=O)NO)N(Cc1ccccc1Cl)S(=O)(=O)c1cc(Cl)cc(Cl)c1O (configuration not stated) [2-{[(2-chlorophenyl)methyl](3,5-dichloro-2-hydroxybenzene)sulfonamido}-N-hydroxypropanamide] | 9 nM | 
20 | CC(C(=O)O)N(Cc1ccccc1Cl)S(=O)(=O)c1cc(Cl)cc(Cl)c1O (configuration not stated) [2-{[(2-chlorophenyl)methyl](3,5-dichloro-2-hydroxybenzene)sulfonamido}propanoic acid] | 2400 nM | 
21 | CC(C(=O)NO)N(Cc1ccccc1Cl)S(=O)(=O)c1cccc([N+](=O)[O-])c1 (configuration not stated) [2-{[(2-chlorophenyl)methyl](3-nitrobenzene)sulfonamido}-N-hydroxypropanamide] | 11 nM | 
22 | CC(C(=O)O)N(Cc1ccccc1Cl)S(=O)(=O)c1cccc([N+](=O)[O-])c1 (configuration not stated) [2-{[(2-chlorophenyl)methyl](3-nitrobenzene)sulfonamido}propanoic acid] |  | 5000 nM
23 | CC(=O)Nc1ccc(S(=O)(=O)N(Cc2ccccc2Cl)C(C)C(=O)O)cc1 (configuration not stated) [2-{[(2-chlorophenyl)methyl](4-acetamidobenzene)sulfonamido}propanoic acid] | 3000 nM | 
24 | CC(C(=O)O)N(Cc1ccccc1Cl)S(=O)(=O)c1ccc(F)cc1 (configuration not stated) [2-{[(2-chlorophenyl)methyl](4-fluorobenzene)sulfonamido}propanoic acid] |  | 12000 nM
25 | CC(C(=O)O)N(Cc1ccccc1Cl)S(=O)(=O)c1ccc(I)cc1 (configuration not stated) [2-{[(2-chlorophenyl)methyl](4-iodobenzene)sulfonamido}propanoic acid] |  | 10000 nM
26 | COc1ccc(S(=O)(=O)N(Cc2ccccc2Cl)C(C)C(=O)O)cc1 (configuration not stated) [2-{[(2-chlorophenyl)methyl](4-methoxybenzene)sulfonamido}propanoic acid] | 6000 nM | 
27 | Cc1ccc(S(=O)(=O)N(Cc2ccccc2Cl)C(C)C(=O)NO)cc1 (configuration not stated) [2-{[(2-chlorophenyl)methyl](4-methylbenzene)sulfonamido}-N-hydroxypropanamide] | 45 nM | 
28 | Cc1ccc(S(=O)(=O)N(Cc2ccccc2Cl)C(C)C(=O)O)cc1 (configuration not stated) [2-{[(2-chlorophenyl)methyl](4-methylbenzene)sulfonamido}propanoic acid] |  | 18000 nM
29 | CC(C(=O)NO)N(Cc1ccccc1Cl)S(=O)(=O)c1ccc([N+](=O)[O-])cc1 (configuration not stated) [2-{[(2-chlorophenyl)methyl](4-nitrobenzene)sulfonamido}-N-hydroxypropanamide] | 15 nM | 
30 | CC(C(=O)NO)N(Cc1ccccc1Cl)S(=O)(=O)N(C)C (configuration not stated) [2-{[(2-chlorophenyl)methyl](dimethylsulfamoyl)amino}-N-hydroxypropanamide] | 77 nM | 
31 | CC(C(=O)NO)N(Cc1ccccc1Cl)S(C)(=O)=O (configuration not stated) [2-{[(2-chlorophenyl)methyl](methane)sulfonamido}-N-hydroxypropanamide] | 92 nM | 
32 | CC(C(=O)O)N(Cc1ccccc1Cl)S(C)(=O)=O (configuration not stated) [2-{[(2-chlorophenyl)methyl](methane)sulfonamido}propanoic acid] |  | 21000 nM
